Measurements from patent publication US10221174B2.
pIC50: −log10 of the molar value. Like-named read-outs stand apart in the source and are kept apart here.

The chains behind the UniProt entries cited, without tags or fusion partners.
UniProt P10415, whole entry: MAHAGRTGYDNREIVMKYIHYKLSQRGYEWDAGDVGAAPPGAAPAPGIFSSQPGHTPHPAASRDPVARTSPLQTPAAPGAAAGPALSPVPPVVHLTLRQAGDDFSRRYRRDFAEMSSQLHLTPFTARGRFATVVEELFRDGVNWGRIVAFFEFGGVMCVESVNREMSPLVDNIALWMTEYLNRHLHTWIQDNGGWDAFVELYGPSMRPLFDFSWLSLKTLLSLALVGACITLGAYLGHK
UniProt Q07817, whole entry: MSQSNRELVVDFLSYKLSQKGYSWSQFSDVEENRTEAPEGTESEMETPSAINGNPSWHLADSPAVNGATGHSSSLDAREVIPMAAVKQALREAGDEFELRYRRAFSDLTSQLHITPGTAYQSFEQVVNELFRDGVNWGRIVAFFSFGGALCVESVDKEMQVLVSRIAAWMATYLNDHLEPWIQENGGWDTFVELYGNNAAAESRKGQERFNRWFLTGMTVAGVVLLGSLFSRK

Tests used:
Bcl-2 [1] = molecular target: T1, Bcl-2 (Homo sapiens (Human), UniProt P10415)
Bcl-xL = Bcl-xL (Homo sapiens (Human), UniProt Q07817); assay: Fluorescence polarization competitive binding assay, Bcl-xL; details: FP competition, 10 nM Bcl-xL, 2 nM Flu-BAK probe; read-out: Inhibitory activity IC50 Bcl-xL
Bcl-2 [2] = molecular target: T1, Bcl-2; assay: biochemical

Compound | pIC50 (Bcl-2 [1]) | pIC50 (Bcl-xL) | pIC50 (Bcl-2 [2])
O=C(NS(=O)(=O)c1ccc(NCC2CCOCC2)c([N+](=O)[O-])c1)c1ccc(C2=CCN(CC3=C(c4ccc(Cl)cc4)CC4(CC3)COC4)CC2)cc1Oc1cnc2[nH]ccc2c1 [compound 9, 2-((1H-pyrrolo[2,3-b]pyridin-5-yl)oxy)-4-(1-((6-(4-chlorophenyl)-2-oxaspiro[3.5]non-6-en-7-yl)methyl)-1,2,3,6-tetrahydropyridin-4-yl)-N-((3-nitro-4-(((tetrahydro-2H-pyran-4-yl)methyl)amino)phenyl)sulfonyl)benzamide] | 8.72 | 7.69 | –
O=C(NS(=O)(=O)c1cc([N+](=O)[O-])c2nn(CC3CCOCC3)cc2c1)c1ccc(N2CCN(CC3=C(c4ccc(Cl)cc4)CC4(CCC4)CC3)CC2)cc1Oc1cnc2[nH]ccc2c1 [compound 61, 2-((1H-pyrrolo[2,3-b]pyridin-5-yl)oxy)-4-(4-((6-(4-chlorophenyl)spiro[3.5]non-6-en-7-yl)methyl)piperazin-1-yl)-N-((7-nitro-2-((tetrahydro-2H-pyran-4-yl)methyl)-2H-indazol-5yl)sulfonyl)benzamide] | 8.68 | – | –
O=C(NS(=O)(=O)c1ccc(NCC2CCOCC2)c([N+](=O)[O-])c1)c1ccc(C2=CCN(CC3=C(c4ccc(Cl)cc4)CC4(CCC4)CC3)CC2)cc1Oc1cnc2[nH]ccc2c1 [compound 7, 2-((1H-pyrrolo[2,3-b]pyridin-5-yl)oxy)-4-(1-((6-(4-chlorophenyl)spiro[3.5]non-6-en-7-yl)methyl)-1,2,3,6-tetrahydropyridin-4-yl)-N-((3-nitro-4-(((tetrahydro-2H-pyran-4-yl)methyl)amino)phenyl)sulfonyl)benzamide] | 8.62 | – | –
O=C(NS(=O)(=O)c1cc([N+](=O)[O-])c2c(cnn2CC2CCOCC2)c1)c1ccc(N2CCN(CC3=C(c4ccc(Cl)cc4)CC4(CCC4)CC3)CC2)cc1Oc1cnc2[nH]ccc2c1 [compound 60, 2-((1H-pyrrolo[2,3-b]pyridin-5-yl)oxy)-4-(4-((6-(4-chlorophenyl)spiro[3.5]non-6-en-7-yl)methyl)piperazin-1-yl)-N-((7-nitro-1-((tetrahydro-2H-pyran-4-yl)methyl)-1H-indazol-5-yl)sulfonyl)benzamide] | 8.68 | – | –
O=C(NS(=O)(=O)c1ccc(NC[C@@H]2COCCO2)c([N+](=O)[O-])c1)c1ccc(C2=CCN(CC3=C(c4ccc(Cl)cc4)CC4(CC3)COC4)CC2)cc1Oc1cnc2[nH]ccc2c1 [Cpd. No. 5, (R)-N-((4-(((1,4-dioxan-2-yl)methyl)amino)-3-nitrophenyl)sulfonyl)-2-((1H-pyrrolo[2,3-b]pyridin-5-yl)oxy)-4-(1-((6-(4-chlorophenyl)-2-oxaspiro[3.5]non-6-en-7-yl)methyl)-1,2,3,6-tetrahydropyridin-4-yl)benzamide] | – | 7.85 | 8.68
